Amino acid sequences for entries named in this document (tags omitted).
UniProt Q96LD8, whole entry: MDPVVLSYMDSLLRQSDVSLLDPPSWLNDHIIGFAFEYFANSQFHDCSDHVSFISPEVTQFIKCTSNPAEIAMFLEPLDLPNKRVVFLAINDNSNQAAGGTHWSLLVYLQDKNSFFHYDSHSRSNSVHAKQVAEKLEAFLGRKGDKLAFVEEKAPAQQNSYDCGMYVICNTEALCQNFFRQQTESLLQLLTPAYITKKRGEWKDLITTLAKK

The entries are a selection whose mix differs from that of the whole data set. Active and inactive are the calls of the source. No stated cut-off is given here; in the data, active means inhibition above about 50%; inactive means the rest.
The compounds below were run against Sentrin-specific protease 8 (Homo sapiens) (UniProt Q96LD8) (assay: SENP8 protease inhibitors, primary screen, biochemical, luminescence (AID 2540)). Conditions: purified SENP8, Z-RLRGG-aminoluciferin cleavage, at 10 µM, active compounds read high.
`COc1ccc(CN(CCCl)CCCl)cc1Cl` was tested, and the inhibition was inactive: -2.36%. With `CN(C)c1cccc(C(=O)NCC2(N3CCCCC3)CCCCC2)c1` the inhibition was inactive: -3.23%. For `CC(C)c1ccc(NC2CCN(C(=O)OC(C)(C)C)CC2)cc1`, the inhibition was inactive: 2.73%. In the case of `COc1cc(OC)c(C(=O)NCC2(N(C)C)CCCCC2)cc1OC`, the inhibition is reported as inactive: -7.38%. In the case of `O=C(NCC1(N2CCOCC2)CCCCC1)c1cc(F)c(F)cc1Cl`, the inhibition is reported as inactive: -10.9%. `CN1CCC(Nc2cccc(F)c2)CC1` was tested, and the inhibition was inactive: -1.22%. With `O=C(NCC1(N2CCCCC2)CCCCC1)c1cncc(Br)c1` the inhibition was inactive: 2.29%. `O=C(NCC1(N2CCCCC2)CCCCC1)c1ccc(OC(F)F)cc1` was tested, and the inhibition was inactive: -9.78%. In the case of `CSc1ccc(C(=O)NCC2(N3CCOCC3)CCCCC2)cc1`, the inhibition is reported as inactive: -14.6%. With `O=C(NCC1(N2CCCCC2)CCCCC1)c1cccc([N+](=O)[O-])c1` the inhibition was inactive: -1.95%. `CCN1CCC(Nc2ccc(Cl)cc2)CC1` was tested, and the inhibition was inactive: 1.53%. In the case of `N#CC1(Nc2ccccc2)CCN(CCc2ccccc2)CC1`, the inhibition is reported as inactive: -3.61%. For `O=C(NCC1(N2CCCCC2)CCCCC1)c1cccc(C(F)(F)F)c1`, the inhibition was inactive: 0.051%. For `COc1ccc(NC2CCN(C(=O)OC(C)(C)C)CC2)cc1`, the inhibition was inactive: 1.78%. With `CC(C)c1ccc(C(=O)NCC2(N3CCOCC3)CCCCC2)cc1` the inhibition was inactive: 6.98%. With `CN1CCN(CCOC(=O)C(O)(c2ccccc2)c2ccccc2)CC1` the inhibition was inactive: -3.51%. With `O=C(NCC1(N2CCOCC2)CCCCC1)c1cc(=O)[nH]c2ccccc12` the inhibition was inactive: -8.94%. In the case of `COc1cc(C(=O)NCC2(N3CCCCC3)CCCCC2)ccc1OC(F)F`, the inhibition is reported as inactive: 5.24%. With `CCOc1ccc(C)cc1CN(CCCl)CCCl` the inhibition was inactive: -7.25%. With `CCCCOc1ccc(C(=O)NCC2(N3CCOCC3)CCCCC2)cc1` the inhibition was inactive: 2.44%. For `O=C(NCC1(N2CCCCC2)CCCCC1)c1ccc(F)cc1`, the inhibition was inactive: -8.33%. With `CCOC(=O)N1CCC(Nc2ccc(F)cc2)CC1` the inhibition was inactive: 6.65%. In the case of `COc1ccc(NC2CCN(CCc3ccccc3)CC2)c(OC)c1`, the inhibition is reported as inactive: -9.97%. In the case of `CCOC(=O)N1CCC(Nc2cccc(C)c2)CC1`, the inhibition is reported as inactive: 10.1%. For `Cc1ccc(OCC(C)C)c(CN(CCCl)CCCl)c1`, the inhibition was inactive: -1.09%. `O=C(NCC1(N2CCCCC2)CCCCC1)c1ccc(=O)[nH]c1` was tested, and the inhibition was inactive: -0.686%. With `O=C(NCC1(N2CCCCC2)CCCCC1)c1cccs1` the inhibition was inactive: 3.78%. `COc1ccc(C(=O)NCC2(N3CCCCC3)CCCCC2)cc1` was tested, and the inhibition was inactive: 0.71%. `COc1ccc(C(=O)NCC2(N3CCCCC3)CCCCC2)c(OC)c1OC` was tested, and the inhibition was inactive: 4.37%. `CC(C)(C)OC(=O)N1CCC(N(C(=O)c2ccccc2)c2ccc(F)cc2)CC1` was tested, and the inhibition was inactive: -0.944%. With `CSc1ccccc1C(=O)NCC1(N2CCCCC2)CCCCC1` the inhibition was inactive: 4.8%. With `O=C(NCC1(N2CCOCC2)CCCCC1)c1cc2ccccc2o1` the inhibition was inactive: 8.34%. `O=C(NCC1(N2CCCCC2)CCCCC1)c1ccc(Cl)nc1` was tested, and the inhibition was inactive: -2.59%. `Cc1cc(C)cc(N(C(=O)c2ccccc2)C2CCN(C(=O)OC(C)(C)C)CC2)c1` was tested, and the inhibition was inactive: -4.52%. In the case of `CCOC(=O)N1CCC(Nc2ccc(OC)cc2)CC1`, the inhibition is reported as inactive: -11.1%. For `N#CC1(Nc2ccccc2)CCN(Cc2ccccc2)CC1`, the inhibition was inactive: 5.56%. In the case of `O=C(NCC1(N2CCCCC2)CCCCC1)c1ccc(Cl)s1`, the inhibition is reported as inactive: -1.07%. With `O=C(OC1CN2CCC1CC2)C1c2ccccc2Oc2ccccc21` (configuration not stated) the inhibition was inactive: -9.09%. With `COc1ccc(Cl)cc1C(=O)NCC1(N2CCOCC2)CCCCC1` the inhibition was inactive: -0.199%. With `CCOc1ncccc1C(=O)NCC1(N2CCOCC2)CCCCC1` the inhibition was inactive: -0.495%. With `CN1CCC(Nc2ccc(F)c(Cl)c2)CC1` the inhibition was inactive: -5.92%. `CCCOc1ccc(C(=O)NCC2(N(C)C)CCCCC2)cc1` was tested, and the inhibition was inactive: 2.21%. With `CC(C)(C)OC(=O)N1CCC(Nc2ccccc2)CC1` the inhibition was inactive: -3.8%. `O=C(O)C1(Nc2ccccc2)CCN(Cc2ccccc2)CC1` was tested, and the inhibition was inactive: -10.7%. With `CCC(CO)(C(=O)OC1CN2CCC1CC2)c1ccccc1` (configuration not stated) the inhibition was inactive: -1.36%. In the case of `COc1cccc(C(=O)N(c2cc(C)cc(C)c2)C2CCN(C(=O)OC(C)(C)C)CC2)c1`, the inhibition is reported as inactive: -6.99%. `COc1cc(OC)cc(C(=O)NCC2(N3CCOCC3)CCCCC2)c1` was tested, and the inhibition was inactive: -11.5%. `CCCOc1ccc(C)cc1CN(CCCl)CCCl` was tested, and the inhibition was inactive: -1.09%. For `CN1CCC(Nc2ccc(Cl)cc2)CC1`, the inhibition was inactive: -2.73%. With `COc1cc(OC)cc(C(=O)NCC2(N3CCCCC3)CCCCC2)c1` the inhibition was inactive: -0.95%. `Cc1ccc(C(=O)NCC2(N3CCCCC3)CCCCC2)o1` was tested, and the inhibition was inactive: 9.81%. With `Fc1ccccc1NC1CCN(Cc2ccccc2)CC1` the inhibition was inactive: -12.9%. `CCN1CCC(Nc2cccc(F)c2)CC1` was tested, and the inhibition was inactive: 0.261%. For `O=C(NCC1(N2CCCCC2)CCCCC1)c1ccco1`, the inhibition was inactive: -16.4%. In the case of `CN(C)c1ccc(C(=O)NCC2(N3CCCCC3)CCCCC2)cc1`, the inhibition is reported as inactive: 4.55%. With `CC(C)(C)OC(=O)N1CCC(N(C(=O)c2ccccc2)c2ccc(Cl)cc2)CC1` the inhibition was inactive: 1.85%. `N#Cc1ccc(C(=O)NCC2(N3CCCCC3)CCCCC2)cc1` was tested, and the inhibition was inactive: -1.22%. `c1ccc(CN2CCC(Nc3ccccc3)CC2)cc1` was tested, and the inhibition was inactive: -10.9%. In the case of `CCCN1CCC(Nc2cc(OC)cc(OC)c2)CC1`, the inhibition is reported as inactive: -4.31%. With `CN(C)C1(CNC(=O)c2cccc(C#N)c2)CCCCC1` the inhibition was inactive: -3.29%. In the case of `O=C(NCC1(N2CCOCC2)CCCCC1)c1cc(Br)ccc1Cl`, the inhibition is reported as inactive: -6.08%. With `COc1cc(C(=O)NCC2(N3CCOCC3)CCCCC2)cc(OC)c1C` the inhibition was inactive: -1.14%. For `COc1ccc(C(=O)NCC2(N3CCOCC3)CCCCC2)cc1OC`, the inhibition was inactive: -3.95%. In the case of `N/C(=N\O)c1c(N)no[n+]1[O-]`, the inhibition is reported as inactive: -8.3%. `CCOC(=O)N1CCC(Nc2ccc(C)cc2)CC1` was tested, and the inhibition was inactive: -3.23%. In the case of `CCc1cc(C(=O)NCC2(N3CCCCC3)CCCCC2)sc1C`, the inhibition is reported as inactive: 6.81%. In the case of `O=C(OC1CN2CCC1CC2)C1c2ccccc2C=Cc2ccccc21` (configuration not stated), the inhibition is reported as inactive: -4.2%.

Source: PubChem BioAssay AID2540 (Sanford-Burnham Center for Chemical Genomics, 2010)
